The results in this text go back to US9968633B2, “Stimuli responsive compositions for iron chelation” (WISCONSIN ALUMNI RESEARCH FOUNDATION, priority 2014, dated 2018).

The test system of the data set is iron-overloaded J774A.1 cells. The method, then: Mouse macrophage/monocyte cell line, J774A.1, was purchased from American Type Culture Collection (ATCC). Cells were seeded in 96-well plates at a density of 3,000 cells/well, cultured at 37° C., 5% CO2 with DMEM complete medium (supplemented with 10% (v/v) heat-inactivated FBS, 100 I.U./mL penicillin and 100 μg/mL streptomycin), and allowed to settle for 24 h. Cells were then treated with DFO or oxNG-DFO at equivalent DFO concentrations of 1 mM prepared by 1:3 serial dilutions.
Cell viability was measured with the metabolism-based resazurin assay. Briefly, the substrate resazurin was dissolved in cell culture medium at a concentration of 44 μM, added to each well (100 μl) and incubated at 37° C. for 4 h. The fluorescence was measured with excitation at 560 nm and emission at 590 nm, on a SpectraMax Gemini EM microplate reader. Readings from the wells without cells were used as Eblank, and the readings from control cells without treatment (Econtrol) represented 100% cell viability. The viability of treated cells at different concentrations can be calculated by the following equation: […]
Similarly, cytotoxicity was also evaluated in iron-overloaded J774A.1 cells as described above. […]

Where only a bound is given, the exact number is not on record here.

For the substance Ferric ammonium citrate [FAC], the “Cells viable after FAC incubation” value is listed as above 80%.
